## Measured affinities in a library of Ab-14 heavy chain variants

Data: MIT Lincoln Laboratory AlphaSeq set, Li et al. 2023, doi:10.1038/s41467-023-39022-2, as distributed in FLAb.

All variants were tested on one target, the spike HR2 peptide PDVDLGDISGINAS (SARS-CoV-2).

Each scFv is VH, three GGGGS repeats, VL, as in the parent Ab-14, and differs from it in the CDRs of the heavy chain only.
VH: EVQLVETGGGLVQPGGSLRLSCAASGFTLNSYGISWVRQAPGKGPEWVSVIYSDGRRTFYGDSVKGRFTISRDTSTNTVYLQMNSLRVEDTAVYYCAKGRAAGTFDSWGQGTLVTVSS
VL: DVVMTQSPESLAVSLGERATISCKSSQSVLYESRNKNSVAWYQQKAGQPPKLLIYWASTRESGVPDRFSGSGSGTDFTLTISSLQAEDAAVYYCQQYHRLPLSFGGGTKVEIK

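The parent was found by panning a naive human phage display library on the peptide. These sequences belong to a second round, designed from the earlier measurements on random variants of the parent. Their group label is 14H_GP_Gibbs (GP: Gaussian process model; Gibbs: Gibbs sampling; a sequence that several methods proposed may carry one label only). The assay is AlphaSeq: two haploid yeast populations carry antibody and antigen on their surface. The frequency of each diploid, read from paired DNA barcodes, reflects how well the two displayed proteins bind. Read counts were normalised to the haploid input and turned into Kd by a linear fit to BCL2-family pairs of known affinity, for each replicate. The assay was run in six technical replicates.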

Substitutions are numbered in sequence along the VH above, starting at 1 (not Kabat).
Numbers give log10(Kd / nM), so 0 is 1 nM and 3 is 1 µM. Smaller is tighter.
Averages over replicates are reported, and they cover detected replicates only.
A pair that was not seen in that replicate is written "n.d."; this usually means weak binding, but a binder can also be missed.
Of ten entries with the parent sequence, four were seen in most replicates (averages 0.34 to 2.37), three in one and three in none, so single entries are noisy.

changes | replicates, log10 nM | log10 Kd (nM), mean | empty controls
T28G S31E R100K A101T S107L | 0.54 0.22 0.00 0.26 0.86 0.23 | 0.35 | 1/18 (0.39)
T28D G61Q R100K A101Q | 1.10 1.15 1.38 0.72 1.58 1.63 | 1.26 | 0/18
T28S G61S R100Q A101T S107T | -0.04 -0.06 -0.18 -0.04 -0.20 0.06 | -0.08 | 1/18 (4.96)
G26K R100K A101V S107T | n.d. n.d. n.d. n.d. 1.56 0.71 | 1.14 | 1/18 (1.58)
G26M T28S S53A R100Q S107K | n.d. 0.57 1.49 1.08 1.71 1.05 | 1.18 | 0/18
G26Y T28S S31D G61M A101T | n.d. n.d. 1.93 n.d. n.d. n.d. | 1.93 | 1/18 (2.53)
G26K T28E R100K A101T S107T | 1.80 1.98 2.06 1.28 1.83 2.94 | 1.98 | 0/18
T28E S31T G61A R100K S107T | 0.17 0.22 -0.02 -0.10 -0.01 0.40 | 0.11 | 0/18
G26K T28D R56K G61I A101T | 1.64 1.57 n.d. 1.15 1.32 0.72 | 1.28 | 0/18
G61S S63Q R100K | 1.08 1.14 1.42 1.01 1.61 1.30 | 1.26 | 0/18
T28D G61A S63G R100K | n.d. n.d. n.d. n.d. n.d. n.d. | n.d. | 0/18
T28G G61A A101E S107T | n.d. n.d. n.d. n.d. n.d. n.d. | n.d. | 0/18
T28N G61A S63R R100K | 0.78 1.11 1.52 1.70 1.65 0.98 | 1.29 | 1/18 (2.08)
G26S T28E G61I R100Q A101T | 3.15 2.83 n.d. 2.83 2.09 3.23 | 2.83 | 0/18
G26Y T28S S31E A101E | n.d. 1.04 0.30 0.31 1.55 n.d. | 0.80 | 0/18
T28S S63N R100Q A101T S107K | 1.05 0.55 0.48 0.33 0.59 0.49 | 0.58 | 0/18
T28D R56K A101T D106W | n.d. n.d. n.d. n.d. n.d. n.d. | n.d. | 1/18 (1.06)
G26H T28S S31E G61H A101T | n.d. n.d. n.d. n.d. n.d. 1.38 | 1.38 | 0/18
T28S S31D S63E A101T S107A | n.d. 0.84 n.d. 0.99 2.03 n.d. | 1.29 | 0/18
T28D F59A G61I | 0.19 0.06 -0.05 -0.02 -0.02 -0.39 | -0.04 | 0/18
T28E G61D R100K A101N | n.d. n.d. n.d. n.d. n.d. n.d. | n.d. | 0/18
T28N G61A S63Q A101Q | 1.84 1.47 1.12 1.32 1.82 1.18 | 1.46 | 0/18
T28S G61Q S63R R100E S107T | n.d. 1.13 -0.16 0.51 1.57 1.78 | 0.97 | 0/18
T28N G61I R100W A101V | 1.20 n.d. 1.53 0.80 1.21 2.18 | 1.39 | 0/18
G26K T28S S31C R100K A101T | 0.12 0.60 0.03 0.54 0.09 0.10 | 0.25 | 0/18
T28S G61V S63Q A101N | n.d. n.d. n.d. n.d. 0.35 1.66 | 1.01 | 0/18
T28D S31E A101M | 0.51 -0.21 0.30 -0.04 -0.19 0.18 | 0.09 | 1/18 (1.71)
R56K G61I R100K A101V | -0.30 0.37 n.d. n.d. n.d. n.d. | 0.04 | 0/18
T28S R100M A101K S107D | n.d. n.d. n.d. n.d. n.d. n.d. | n.d. | 0/18
T28E S31E R100E S107V | 0.81 -0.06 -0.33 -0.14 0.64 -0.54 | 0.06 | 0/18
T28H G61Q R100W A101T | 1.56 0.92 0.91 n.d. 2.66 2.58 | 1.73 | 1/18 (1.68)
T28G S31E G61H A101T D106W | -0.03 -0.17 -0.37 -0.28 -0.35 -0.16 | -0.23 | 0/18
T28E S31D R100Q S107L | 0.78 0.52 0.72 0.00 0.39 1.06 | 0.58 | 1/18 (2.87)
T28E S31D G61C A101T | 1.27 2.51 2.07 1.68 1.03 1.47 | 1.67 | 0/18

Extract of 4 entries:

changes | replicates, log10 nM | log10 Kd (nM), mean | empty controls
T28D S31E A101M | 0.51 -0.21 0.30 -0.04 -0.19 0.18 | 0.09 | 1/18 (1.71)
T28S S31D S63E A101T S107A | n.d. 0.84 n.d. 0.99 2.03 n.d. | 1.29 | 0/18
G26Y T28S S31D G61M A101T | n.d. n.d. 1.93 n.d. n.d. n.d. | 1.93 | 1/18 (2.53)
T28G S31E R100K A101T S107L | 0.54 0.22 0.00 0.26 0.86 0.23 | 0.35 | 1/18 (0.39)

The range of this assay differs from that of the first round, and the authors advise against merging the two.
Empty control strains, which show no peptide, gave a signal in 1% of pairings with all heavy chain designs; the median was 2.08 and 95% of these signals were weaker than 0.84. No background was subtracted. For each scFv, signals with the empty controls are counted beside the result, with their mean in brackets.
The authors averaged sequences with at least three values out of six and counted those with two or fewer as poor binders.